Chains of the proteins cited; added tags and fusions are not shown.
UniProt Q00987, whole entry: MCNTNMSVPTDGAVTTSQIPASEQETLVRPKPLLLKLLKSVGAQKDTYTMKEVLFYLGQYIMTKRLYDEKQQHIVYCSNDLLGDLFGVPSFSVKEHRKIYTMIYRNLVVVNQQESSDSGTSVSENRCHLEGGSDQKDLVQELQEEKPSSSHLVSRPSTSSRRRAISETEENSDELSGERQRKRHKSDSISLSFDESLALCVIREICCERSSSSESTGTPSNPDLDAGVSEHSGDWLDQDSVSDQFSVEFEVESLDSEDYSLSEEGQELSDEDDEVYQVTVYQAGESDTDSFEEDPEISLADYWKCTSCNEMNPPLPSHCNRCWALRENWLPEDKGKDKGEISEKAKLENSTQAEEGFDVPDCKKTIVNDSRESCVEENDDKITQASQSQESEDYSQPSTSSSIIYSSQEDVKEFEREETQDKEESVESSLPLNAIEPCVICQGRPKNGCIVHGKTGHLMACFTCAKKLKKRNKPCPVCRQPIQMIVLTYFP

In patent US9937178B2, “Methods of identifying and using MDM2 inhibitors” (DUKE UNIVERSITY, priority 2011, dated 2018):

What was measured:
CAS-MDM2 interaction = target: T1, CAS-MDM2 interaction (Homo sapiens, UniProt Q00987); assay: CAS-MDM2 co-immunoprecipitation; assay type: cell-based; conditions: Nutlin-3a
T1 construct: association of endogenous MDM2 was analyzed by immunoblotting; expressed in transfected cells; host or cells: BT474 and rBT474 cells transfected with FLAG-CAS; MDM2 endogenous

Huwe1-MDM2 binding = Huwe1-MDM2 binding (Homo sapiens, UniProt Q00987); assay: Huwe1(C/S)-MDM2 co-immunoprecipitation in H1299 cells; assay type: cell-based; conditions: 10 μM Nutlin-3a, 6 hours
Method: Cells were transiently transfected with the indicated plasmid by FuGene6 (Roche) based on manufacturer's instruction. Cells were harvested and lysed with co-IP buffer (10 mM HEPES [pH 7.4], 150 mM KCl, 0.5% NP-40, 1 mM phenylmethylsulfonyl fluoride, 5 μg/ml leupeptin, and 5 μg/ml aprotinin). Cell lysate was incubated with anti-FLAG M2 agarose (Sigma) or anti-AH affinity matrix (Roche) at 4° C. for 2-3 hours. The bead pellet was washed three times with co-IP buffer and then incubated with SDS-sample buffer.

MDM2 and CAS binding (CAS-MDM2 interaction): significantly inhibited
binding of Huwe1(C/S) to endogenous MDM2 (Huwe1-MDM2 binding): significantly reduced
SMILES: COc1ccc(C2=N[C@@H](c3ccc(Cl)cc3)[C@@H](c3ccc(Cl)cc3)N2C(=O)N2CCNC(=O)C2)c(OC(C)C)c1 [Nutlin-3a]
